What was measured:
mouse = settings: injected into mouse brain; cited from earlier work
ClC-2 [1] = target: T1, ClC-2 (Oryctolagus cuniculus, UniProt P51789); assay: Two-electrode voltage clamp (TEVC) of ClC-2 currents in Xenopus oocytes; type: cell-based, rabbit; settings: 0.1 mg/mL equivalent
T1 construct: expressed in transfected cells; host or cells: Xenopus oocytes injected with cRNA (construct in pSport1, gift of H. C. Hartzell)
T1 sequence (P51789 1-898): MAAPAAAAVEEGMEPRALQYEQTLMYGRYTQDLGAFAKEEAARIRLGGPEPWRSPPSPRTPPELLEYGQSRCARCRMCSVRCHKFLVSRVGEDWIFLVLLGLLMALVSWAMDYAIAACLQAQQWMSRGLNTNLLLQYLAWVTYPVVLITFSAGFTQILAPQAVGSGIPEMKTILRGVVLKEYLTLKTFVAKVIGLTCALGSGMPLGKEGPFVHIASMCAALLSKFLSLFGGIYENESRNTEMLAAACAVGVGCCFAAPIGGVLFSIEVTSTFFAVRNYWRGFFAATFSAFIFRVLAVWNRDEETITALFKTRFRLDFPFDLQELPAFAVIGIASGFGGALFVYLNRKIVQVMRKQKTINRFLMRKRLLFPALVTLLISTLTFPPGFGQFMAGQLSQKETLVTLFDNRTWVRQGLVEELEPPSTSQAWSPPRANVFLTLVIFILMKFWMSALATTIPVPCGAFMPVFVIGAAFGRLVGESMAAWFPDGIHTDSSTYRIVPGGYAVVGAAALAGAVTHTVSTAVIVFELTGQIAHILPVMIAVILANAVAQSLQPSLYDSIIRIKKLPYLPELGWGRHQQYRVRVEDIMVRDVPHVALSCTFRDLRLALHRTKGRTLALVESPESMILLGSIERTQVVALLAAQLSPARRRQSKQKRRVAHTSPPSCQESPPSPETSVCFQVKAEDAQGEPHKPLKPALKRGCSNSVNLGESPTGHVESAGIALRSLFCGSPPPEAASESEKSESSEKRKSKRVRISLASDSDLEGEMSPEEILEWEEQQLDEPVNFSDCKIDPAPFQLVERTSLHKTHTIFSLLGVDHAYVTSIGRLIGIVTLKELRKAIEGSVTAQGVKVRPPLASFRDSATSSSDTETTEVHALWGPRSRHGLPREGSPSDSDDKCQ

ClC-2 [2] = target: T1, ClC-2; assay: Inside-out multi-channel patch recording of ClC-2 window current, toxin backfilled into pipette; type: cell-based, rabbit
Experimental: Xenopus oocytes were isolated as previously described and incubated at 18° C. in a modified Liebovitz's L-15 medium (pH 7.5) with a cocktail of antibiotics (gentarnicin, penicillin, streptomycin) and HEPES. CRNA was prepared from rabbit ClC-2 using a construct in pSport1, donated by H. C. Hartzell (Emory University, Atlanta, Ga.). For two-electrode voltage clamp experiments (TEYC), oocytes were injected with 2.5-25 ng of ClC-2 cRNA, 0.06-1 ng Sh13-IR cRNA, or 50-100 ng GABAC-rho subunit cRNA. For patch recordings, oocytes were injected with 0.5-2 ng ClC-2 cRNA. Data were collected at room temperature 2-5 days post injection. Methods for animal handling are in accordance with the NIH guidelines and the protocol was approved by the Animal Use and Care Committee of the Georgia Institute of Technology.
(§1) Inside-out multi-channel and single channel patch clamp experiments were performed as previously described (Fuller, M. D. et al. (2005) Biophys. J. 89, 3960-3975). All data were recorded to DAT tape at 10 kHz and were subsequently filtered at 100 Hz and acquired by computer at 500 Hz. For inside-out patches in the presence of toxin, the toxin was backfilled into the pipette and allowed to diffuse to the surface of the patch. Unless otherwise stated, all single channel traces depicted in the figures were recorded at VM=−100 mV. For all electrophysiological data shown, the horizontal dashed line indicates the zero-current level.
For experiments to construct a dose-response curve using inhibition of ClC-2 in excised, inside-out multi-channel patches, the pipette was backfilled with varying concentrations of synthetic toxin. The pipette was backfilled in such a way as to allow 10 minutes of control recording (at VM=−100 mV or 60 mV), followed by 10 minutes of recording in the presence of GaTx2. The average window current from five separate four-minute windows in both control and experimental conditions was calculated.

insects = settings: injected into insects; cited from earlier work
ClC-2 [3] = target: T1, ClC-2; assay: Single channel patch clamp of ClC-2 (one or two channels in patch); type: cell-based, rabbit; settings: 20 pM; −100 mV
Experimental: as §1
Peptide toxins may either inhibit channels by acting as pore blockers, which fully or partially occlude the pore, or by acting as gating modifiers, making it more difficult for the channel to open (McDonough, S. I. (2003) in Calcium Channel Pharmacology, ed. McDonough, S. I. Kluwer-Academic-Plenum Publishing, New York). […] In the presence of GaTx2, the single protopore amplitude at −100 mV was unchanged from control (0.25±0.01 pA vs, 0.26±0.01 pA, n 3, p=0.45) (FIG. 4A) as measured from the difference between O1 and O2 from the amplitude histograms created from 2-minute sections of record in the absence and presence of toxin. […]

Structure (SMILES): CC[C@H](C)[C@H](NC(=O)[C@@H]1CCCN1C(=O)[C@H](CCC(=O)O)NC(=O)[C@@H]1CSSC[C@@H]2NC(=O)[C@H](Cc3c[nH]cn3)NC(=O)[C@H](CC(=O)O)NC(=O)[C@@H]3CCCN3C(=O)[C@@H]3CSSC[C@H](NC(=O)[C@H](CCCCN)NC(=O)[C@H](CC(=O)O)NC(=O)[C@H](CC(N)=O)NC(=O)[C@H](CC(=O)O)NC(=O)[C@H](CSSC[C@H](NC(=O)[C@H](CO)NC(=O)[C@@H](N)C(C)C)C(=O)N[C@@H](CCC(=O)O)C(=O)N[C@@H](CC(=O)O)C(=O)N3)NC(=O)[C@H](CCCCN)NC(=O)[C@H](C)NC(=O)[C@H](CCCNC(=N)N)NC(=O)[C@H](C)NC(=O)[C@H](CCCCN)NC(=O)[C@H](CCC(N)=O)NC(=O)[C@H]([C@@H](C)O)NC(=O)[C@H](CO)NC2=O)C(=O)N[C@@H](C(C)C)C(=O)N1)C(=O)O [GaTx2]
- lethal effects (mouse): not shown to have any lethal effects
- inhibition of ClC-2 currents (ClC-2 [1]): 64.2±5.3%
- Kd (ClC-2 [2]): 0.012 nM
- inhibition of ClC-2 current (ClC-2 [2]; 2 pM toxin, VM=−100 mV): 4.0±9.9%
- decrease of average window current (ClC-2 [2]; 2 nM backfilled into pipette, VM=−100 mV): 80.4±2.0%
- inhibition of ClC-2 current (ClC-2 [2]; VM=−60 mV, 2 pM synthetic GaTx2 (the same sentence prints 2 μM toxin)): 41.4±4.1%
- lethal effects (insects): not shown to have any lethal effects
- reduction of channel activity NPO/N (ClC-2 [3]): 59.5±8%

— patent US8324158B2, “Methods for inhibiting CLC-2 channel with GATX2” (Georgia Tech Research Corporation, priority 2006, dated 2012)
